# Data published in BindingDB's records for doi:10.1021/acs.jmedchem.0c00960 (Endotherm, 2020).
# The chains behind the UniProt entries cited, without tags or fusion partners.
# UniProt P06493, whole entry: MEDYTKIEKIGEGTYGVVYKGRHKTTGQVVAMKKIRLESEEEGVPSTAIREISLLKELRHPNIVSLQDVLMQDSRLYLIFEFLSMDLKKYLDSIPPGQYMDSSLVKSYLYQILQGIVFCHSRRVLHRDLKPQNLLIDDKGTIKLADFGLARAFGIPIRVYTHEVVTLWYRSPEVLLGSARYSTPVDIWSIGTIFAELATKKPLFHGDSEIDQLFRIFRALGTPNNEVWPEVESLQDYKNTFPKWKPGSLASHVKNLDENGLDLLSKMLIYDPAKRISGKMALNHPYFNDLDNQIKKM
# UniProt P14635, whole entry: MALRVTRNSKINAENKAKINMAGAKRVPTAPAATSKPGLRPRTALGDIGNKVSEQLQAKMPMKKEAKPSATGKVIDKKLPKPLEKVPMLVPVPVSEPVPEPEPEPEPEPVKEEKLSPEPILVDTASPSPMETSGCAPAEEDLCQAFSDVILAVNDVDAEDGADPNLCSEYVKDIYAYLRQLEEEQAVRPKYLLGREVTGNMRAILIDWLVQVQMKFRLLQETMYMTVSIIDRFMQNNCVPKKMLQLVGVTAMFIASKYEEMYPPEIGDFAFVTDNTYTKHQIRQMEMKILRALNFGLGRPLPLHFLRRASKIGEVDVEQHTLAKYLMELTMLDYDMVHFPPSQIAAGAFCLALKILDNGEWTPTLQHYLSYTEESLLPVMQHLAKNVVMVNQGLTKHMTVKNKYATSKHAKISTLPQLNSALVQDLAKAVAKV
# UniProt P24864, whole entry, looked up: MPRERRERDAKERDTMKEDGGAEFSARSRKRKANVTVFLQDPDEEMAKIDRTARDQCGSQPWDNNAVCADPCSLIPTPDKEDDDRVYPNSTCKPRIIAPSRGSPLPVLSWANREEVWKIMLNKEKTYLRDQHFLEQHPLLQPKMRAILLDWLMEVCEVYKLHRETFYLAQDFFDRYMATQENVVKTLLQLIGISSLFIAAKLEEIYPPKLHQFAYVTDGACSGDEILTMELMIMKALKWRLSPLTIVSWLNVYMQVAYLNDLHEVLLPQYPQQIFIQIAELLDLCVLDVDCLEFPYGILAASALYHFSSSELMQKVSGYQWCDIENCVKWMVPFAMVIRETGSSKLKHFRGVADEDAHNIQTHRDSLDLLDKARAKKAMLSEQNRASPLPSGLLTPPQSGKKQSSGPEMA
# Assays:
# [1] = target: Cyclin-dependent kinase/G2/mitotic-specific cyclin- 1 (Homo sapiens, UniProt P06493+P14635)
# [2] = target: Cyclin-dependent kinase 2/G1/S-specific cyclin-E1 (Homo sapiens, UniProt P24941+P24864)
smiles,measurement,setting,value
"C[C@@H](O)[C@@H](C)Oc1nc(Nc2ccc(S(C)(=O)=O)cc2)ncc1C(F)(F)F [US8802686, 2]",IC50,[1],9 nM
same,IC50,[2],8 nM
